Source: ChEMBL document CHEMBL1137633, “2,N6-disubstituted adenosine analogs with antitrypanosomal and antimalarial activities” (Antimicrob Agents Chemother, 2007)

Assay: Cytotoxicity against HEK293T cells after 16 hrs by alamar blue staining
Format: cell-based, Homo sapiens
Conditions: hek-293t

Work on `O=[As]c1ccccc1` (stereo unspecified) yielded an IC50 of 1240 nM.
